Source: ChEMBL document CHEMBL4020724, “Selective HDAC inhibitors with potent oral activity against leukemia and colorectal cancer: Design, structure-activity relationship and anti-tumor activity study” (Eur J Med Chem, 2017)

Tested on: HCT-116
Experiment: Antitumor activity against human HCT116 cells xenografted in BALB/c nude mouse assessed as relative tumor increment ratio at 100 mg/kg/day administered via oral gavage for 16 days measured every 3 days
Type: functional

`O=C(CCCCCCC(=O)Nc1ccccc1)NO` [VORINOSTAT] gave a T/C of 73%.
